This note sets out measurements from US20240277663A1, “PHARMACEUTICAL KITS AND USES THEREOF FOR TREATING COLORECTAL CANCER” (priority 2023, published 2024).

For this experiment, the target named is T1, HDAC10 (Homo sapiens, UniProt Q969S8).
T1 sequence (Q969S8 1-669): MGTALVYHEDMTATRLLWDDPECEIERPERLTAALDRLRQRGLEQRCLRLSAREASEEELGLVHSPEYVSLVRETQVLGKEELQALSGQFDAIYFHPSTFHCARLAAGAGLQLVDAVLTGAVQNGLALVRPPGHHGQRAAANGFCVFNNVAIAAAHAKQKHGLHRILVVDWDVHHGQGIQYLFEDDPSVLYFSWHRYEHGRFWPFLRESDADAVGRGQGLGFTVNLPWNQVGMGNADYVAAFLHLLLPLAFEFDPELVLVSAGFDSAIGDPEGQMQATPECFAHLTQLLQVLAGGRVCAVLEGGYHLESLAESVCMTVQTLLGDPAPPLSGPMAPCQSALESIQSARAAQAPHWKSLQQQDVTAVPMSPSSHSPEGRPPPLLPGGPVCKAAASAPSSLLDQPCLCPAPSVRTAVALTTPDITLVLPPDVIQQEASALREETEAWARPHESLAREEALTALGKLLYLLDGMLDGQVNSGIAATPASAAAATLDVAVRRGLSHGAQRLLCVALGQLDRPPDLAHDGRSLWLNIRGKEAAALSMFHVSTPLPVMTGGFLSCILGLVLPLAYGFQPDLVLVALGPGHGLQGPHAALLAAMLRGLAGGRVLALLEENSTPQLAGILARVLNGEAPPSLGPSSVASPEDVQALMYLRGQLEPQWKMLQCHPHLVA
Description: HDAC enzymatic activity assay (fluorogenic, Reaction Biology). The note with it: read-out: HDAC enzymatic activity IC50, HDAC10; HDAC Class IIb; 10-dose IC50 format.

`O=C(CCCCCCC(=O)Nc1ccccc1)NO` [Vorinostat]: the IC50 turned out to be 284 nM.
